Assay results taken from ChEMBL document CHEMBL1145159 (J Med Chem, 2005).

By UniProt entry, the sequences of proteins in these tests, tags left out. Where a name states a change or a piece, a line headed by the entry shows the natural chain unless it says otherwise.
UniProt P17787: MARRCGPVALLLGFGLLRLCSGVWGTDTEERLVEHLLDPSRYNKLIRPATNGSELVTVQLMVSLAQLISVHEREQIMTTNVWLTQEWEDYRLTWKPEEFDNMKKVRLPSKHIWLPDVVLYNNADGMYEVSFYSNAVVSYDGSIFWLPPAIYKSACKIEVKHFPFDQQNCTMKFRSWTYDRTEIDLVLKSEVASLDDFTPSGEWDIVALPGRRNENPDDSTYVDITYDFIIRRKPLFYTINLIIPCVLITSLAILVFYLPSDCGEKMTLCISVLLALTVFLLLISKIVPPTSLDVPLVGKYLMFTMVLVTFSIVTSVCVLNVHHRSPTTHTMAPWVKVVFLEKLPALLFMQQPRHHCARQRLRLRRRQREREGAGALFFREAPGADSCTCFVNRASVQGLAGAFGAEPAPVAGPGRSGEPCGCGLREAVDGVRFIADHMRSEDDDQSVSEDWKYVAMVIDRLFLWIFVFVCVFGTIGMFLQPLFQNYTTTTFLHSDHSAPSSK
UniProt P43681: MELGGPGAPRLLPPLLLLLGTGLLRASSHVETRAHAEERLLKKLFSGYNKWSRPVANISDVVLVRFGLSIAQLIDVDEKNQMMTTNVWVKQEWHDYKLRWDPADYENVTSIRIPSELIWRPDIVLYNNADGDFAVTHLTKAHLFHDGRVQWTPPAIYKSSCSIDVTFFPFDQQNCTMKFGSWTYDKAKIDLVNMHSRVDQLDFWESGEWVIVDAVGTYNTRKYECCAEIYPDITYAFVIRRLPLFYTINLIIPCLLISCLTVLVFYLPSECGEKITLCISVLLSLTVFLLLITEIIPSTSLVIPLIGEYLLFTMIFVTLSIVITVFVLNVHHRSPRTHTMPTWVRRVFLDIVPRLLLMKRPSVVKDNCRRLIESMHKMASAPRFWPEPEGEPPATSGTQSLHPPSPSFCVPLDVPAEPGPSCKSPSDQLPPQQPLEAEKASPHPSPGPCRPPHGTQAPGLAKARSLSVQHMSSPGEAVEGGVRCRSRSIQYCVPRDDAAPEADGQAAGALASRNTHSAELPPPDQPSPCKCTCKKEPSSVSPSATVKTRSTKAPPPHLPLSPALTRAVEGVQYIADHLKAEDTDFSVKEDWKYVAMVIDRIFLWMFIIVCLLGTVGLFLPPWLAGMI

Target: Neuronal acetylcholine receptor; alpha4/beta2 (Homo sapiens, UniProt P17787+P43681)
Test: Inhibitory concentration against Nicotinic acetylcholine receptor alpha4-beta2
Type: protein-complex assay

With `CC(NC(C)(C)C)C(=O)c1cccc(Cl)c1` (stereo unspecified) [BUPROPION] the Concentration was 10 µM and 12 µM.

Where “and” joins values, the source holds several entries; their conditions need not be identical. Equal values may be shown once.
